Experiments:
[1] = biological target: T1, PARP7 (Homo sapiens, UniProt Q7Z3E1); test: Inhibition of PARP7 enzyme activity (chemiluminescent assay kit); type: biochemical; conditions: ratio relative to the PARP1 enzyme activity
T1 construct: purchased BPS 80527
T1 sequence (Q7Z3E1 1-657): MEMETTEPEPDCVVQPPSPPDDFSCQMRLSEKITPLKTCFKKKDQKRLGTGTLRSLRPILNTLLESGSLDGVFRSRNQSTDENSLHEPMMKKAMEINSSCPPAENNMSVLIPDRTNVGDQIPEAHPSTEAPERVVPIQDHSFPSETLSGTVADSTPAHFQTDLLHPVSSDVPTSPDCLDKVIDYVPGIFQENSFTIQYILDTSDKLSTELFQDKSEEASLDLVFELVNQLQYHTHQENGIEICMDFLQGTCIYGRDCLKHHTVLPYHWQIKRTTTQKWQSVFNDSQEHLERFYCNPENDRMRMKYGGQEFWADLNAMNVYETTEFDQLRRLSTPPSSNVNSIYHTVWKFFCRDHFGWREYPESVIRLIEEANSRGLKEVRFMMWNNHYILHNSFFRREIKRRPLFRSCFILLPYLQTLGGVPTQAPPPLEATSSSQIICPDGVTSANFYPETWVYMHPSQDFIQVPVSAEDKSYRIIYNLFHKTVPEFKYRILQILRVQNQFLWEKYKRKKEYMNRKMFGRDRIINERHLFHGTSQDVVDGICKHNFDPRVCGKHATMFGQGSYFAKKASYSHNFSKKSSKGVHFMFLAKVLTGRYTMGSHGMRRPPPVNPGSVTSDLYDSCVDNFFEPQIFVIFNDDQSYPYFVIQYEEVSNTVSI

[2] = biological target: T2, PARP11 (Homo sapiens, UniProt Q9NR21); test: Inhibition of PARP11 enzyme activity (chemiluminescent assay kit); type: biochemical; conditions: ratio relative to the PARP1 enzyme activity
T2 construct: purchased BPS 80511
T2 sequence (Q9NR21 1-338): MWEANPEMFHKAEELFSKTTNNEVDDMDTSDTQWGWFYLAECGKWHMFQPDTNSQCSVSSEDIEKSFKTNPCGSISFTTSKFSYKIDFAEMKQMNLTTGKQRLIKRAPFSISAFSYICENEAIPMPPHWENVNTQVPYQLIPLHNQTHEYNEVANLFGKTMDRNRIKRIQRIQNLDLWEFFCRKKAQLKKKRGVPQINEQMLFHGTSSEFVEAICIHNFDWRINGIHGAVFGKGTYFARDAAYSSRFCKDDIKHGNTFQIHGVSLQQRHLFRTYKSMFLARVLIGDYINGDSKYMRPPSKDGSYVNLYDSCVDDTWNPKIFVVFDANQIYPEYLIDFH

CCc1cc2ncc(CN3CCN(c4ccc(C(=O)NC)nc4)CC3)cc2[nH]c1=O [AZD5305, reference compound] was tested, and the “PARP7 multiple vs PARP1” value [1] was 3,710.
With O=C(c1cc(Cc2n[nH]c(=O)c3ccccc23)ccc1F)N1CCN(C(=O)C2CC2)CC1 [Olaparib, olaparib] the “PARP11 multiple vs PARP1” value [2] was 5,280.

Source: patent EP4620956A1, “PARP1 INHIBITORS” (Zhejiang Yangli Pharmaceutical Technology Co., Ltd., priority 2022, dated 2024)
